Measurements: the kinase profiling compilation of Christmann-Franck et al. (2016)

Chains of the proteins cited; added tags and fusions are not shown. Lines headed by an entry give the natural chain unless they say otherwise; changes in a name come on top.
UniProt P15056, whole entry, looked up: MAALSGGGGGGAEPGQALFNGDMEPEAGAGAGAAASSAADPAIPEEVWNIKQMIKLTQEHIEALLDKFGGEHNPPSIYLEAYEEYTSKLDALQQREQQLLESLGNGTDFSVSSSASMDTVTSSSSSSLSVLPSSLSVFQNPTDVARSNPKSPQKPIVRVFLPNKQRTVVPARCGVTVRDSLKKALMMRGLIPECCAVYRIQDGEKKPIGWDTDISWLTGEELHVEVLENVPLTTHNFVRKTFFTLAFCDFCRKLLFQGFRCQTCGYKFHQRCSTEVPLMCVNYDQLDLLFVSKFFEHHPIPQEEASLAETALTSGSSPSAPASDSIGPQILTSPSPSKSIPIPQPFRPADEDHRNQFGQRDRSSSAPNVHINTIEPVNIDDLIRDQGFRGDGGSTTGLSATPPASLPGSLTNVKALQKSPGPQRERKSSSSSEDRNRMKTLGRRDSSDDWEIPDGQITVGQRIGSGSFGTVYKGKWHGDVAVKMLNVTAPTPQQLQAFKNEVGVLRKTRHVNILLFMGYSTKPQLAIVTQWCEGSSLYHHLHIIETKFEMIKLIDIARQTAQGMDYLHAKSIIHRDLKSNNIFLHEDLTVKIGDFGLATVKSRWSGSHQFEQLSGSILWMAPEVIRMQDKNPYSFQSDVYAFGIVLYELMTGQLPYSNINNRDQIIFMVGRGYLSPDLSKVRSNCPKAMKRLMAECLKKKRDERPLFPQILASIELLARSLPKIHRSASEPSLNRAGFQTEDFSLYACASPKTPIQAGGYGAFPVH
UniProt O43293: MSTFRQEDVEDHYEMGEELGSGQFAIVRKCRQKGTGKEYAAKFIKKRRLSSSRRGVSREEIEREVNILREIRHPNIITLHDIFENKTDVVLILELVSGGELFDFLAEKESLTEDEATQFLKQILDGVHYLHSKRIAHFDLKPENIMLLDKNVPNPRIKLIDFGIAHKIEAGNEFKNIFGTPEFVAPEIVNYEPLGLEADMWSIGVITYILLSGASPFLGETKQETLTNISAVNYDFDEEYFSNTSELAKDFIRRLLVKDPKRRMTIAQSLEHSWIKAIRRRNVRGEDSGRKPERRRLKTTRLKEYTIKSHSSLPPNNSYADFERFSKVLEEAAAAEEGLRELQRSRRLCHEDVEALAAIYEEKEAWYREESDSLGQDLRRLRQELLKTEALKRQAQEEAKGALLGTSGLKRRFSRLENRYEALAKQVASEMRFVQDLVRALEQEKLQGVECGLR
UniProt Q6XUX3: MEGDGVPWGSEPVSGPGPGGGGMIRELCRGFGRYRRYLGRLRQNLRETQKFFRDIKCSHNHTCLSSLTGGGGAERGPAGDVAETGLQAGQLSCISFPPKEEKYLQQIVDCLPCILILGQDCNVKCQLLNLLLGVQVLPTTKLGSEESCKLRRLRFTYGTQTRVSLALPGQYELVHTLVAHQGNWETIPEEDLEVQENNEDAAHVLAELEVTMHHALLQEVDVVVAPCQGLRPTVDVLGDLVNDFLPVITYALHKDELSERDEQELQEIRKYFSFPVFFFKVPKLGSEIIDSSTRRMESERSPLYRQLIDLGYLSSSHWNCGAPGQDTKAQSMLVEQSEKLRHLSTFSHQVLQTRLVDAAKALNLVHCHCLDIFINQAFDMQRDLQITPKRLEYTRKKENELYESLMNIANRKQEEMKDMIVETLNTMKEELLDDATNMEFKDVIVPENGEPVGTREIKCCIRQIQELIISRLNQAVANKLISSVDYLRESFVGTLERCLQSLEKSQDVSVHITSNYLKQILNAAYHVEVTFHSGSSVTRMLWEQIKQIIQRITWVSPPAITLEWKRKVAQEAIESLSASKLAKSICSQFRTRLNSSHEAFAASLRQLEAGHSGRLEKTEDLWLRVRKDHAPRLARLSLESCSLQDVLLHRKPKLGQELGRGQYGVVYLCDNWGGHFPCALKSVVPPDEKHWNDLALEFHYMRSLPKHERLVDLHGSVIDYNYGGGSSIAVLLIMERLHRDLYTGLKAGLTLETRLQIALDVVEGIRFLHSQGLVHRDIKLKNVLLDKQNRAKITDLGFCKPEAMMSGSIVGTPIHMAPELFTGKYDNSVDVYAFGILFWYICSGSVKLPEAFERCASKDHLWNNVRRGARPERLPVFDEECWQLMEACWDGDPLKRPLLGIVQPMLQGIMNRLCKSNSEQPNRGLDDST
UniProt P29320: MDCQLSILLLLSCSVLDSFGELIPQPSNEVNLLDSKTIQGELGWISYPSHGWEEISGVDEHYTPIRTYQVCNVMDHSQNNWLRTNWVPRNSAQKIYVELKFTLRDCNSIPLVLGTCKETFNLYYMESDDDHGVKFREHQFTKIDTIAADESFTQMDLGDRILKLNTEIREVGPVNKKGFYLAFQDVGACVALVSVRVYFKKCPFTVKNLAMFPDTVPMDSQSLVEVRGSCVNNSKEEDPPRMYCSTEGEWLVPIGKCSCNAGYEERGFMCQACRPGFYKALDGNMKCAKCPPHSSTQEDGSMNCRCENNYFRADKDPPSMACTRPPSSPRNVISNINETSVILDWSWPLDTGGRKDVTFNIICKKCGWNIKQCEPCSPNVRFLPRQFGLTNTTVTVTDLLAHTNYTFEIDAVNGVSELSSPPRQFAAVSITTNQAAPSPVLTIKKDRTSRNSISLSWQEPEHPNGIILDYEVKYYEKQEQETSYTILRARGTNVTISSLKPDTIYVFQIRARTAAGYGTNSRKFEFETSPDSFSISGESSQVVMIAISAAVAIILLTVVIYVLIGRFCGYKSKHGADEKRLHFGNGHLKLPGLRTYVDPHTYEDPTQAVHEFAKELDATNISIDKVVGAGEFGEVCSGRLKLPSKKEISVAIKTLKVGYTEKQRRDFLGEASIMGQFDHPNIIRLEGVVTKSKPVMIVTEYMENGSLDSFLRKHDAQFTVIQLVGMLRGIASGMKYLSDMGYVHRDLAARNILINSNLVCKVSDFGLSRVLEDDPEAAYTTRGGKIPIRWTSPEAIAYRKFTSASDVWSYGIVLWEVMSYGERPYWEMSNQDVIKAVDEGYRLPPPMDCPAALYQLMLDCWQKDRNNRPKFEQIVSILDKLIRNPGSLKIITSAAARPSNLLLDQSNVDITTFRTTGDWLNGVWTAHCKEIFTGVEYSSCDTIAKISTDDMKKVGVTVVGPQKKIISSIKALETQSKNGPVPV
UniProt Q8TF76: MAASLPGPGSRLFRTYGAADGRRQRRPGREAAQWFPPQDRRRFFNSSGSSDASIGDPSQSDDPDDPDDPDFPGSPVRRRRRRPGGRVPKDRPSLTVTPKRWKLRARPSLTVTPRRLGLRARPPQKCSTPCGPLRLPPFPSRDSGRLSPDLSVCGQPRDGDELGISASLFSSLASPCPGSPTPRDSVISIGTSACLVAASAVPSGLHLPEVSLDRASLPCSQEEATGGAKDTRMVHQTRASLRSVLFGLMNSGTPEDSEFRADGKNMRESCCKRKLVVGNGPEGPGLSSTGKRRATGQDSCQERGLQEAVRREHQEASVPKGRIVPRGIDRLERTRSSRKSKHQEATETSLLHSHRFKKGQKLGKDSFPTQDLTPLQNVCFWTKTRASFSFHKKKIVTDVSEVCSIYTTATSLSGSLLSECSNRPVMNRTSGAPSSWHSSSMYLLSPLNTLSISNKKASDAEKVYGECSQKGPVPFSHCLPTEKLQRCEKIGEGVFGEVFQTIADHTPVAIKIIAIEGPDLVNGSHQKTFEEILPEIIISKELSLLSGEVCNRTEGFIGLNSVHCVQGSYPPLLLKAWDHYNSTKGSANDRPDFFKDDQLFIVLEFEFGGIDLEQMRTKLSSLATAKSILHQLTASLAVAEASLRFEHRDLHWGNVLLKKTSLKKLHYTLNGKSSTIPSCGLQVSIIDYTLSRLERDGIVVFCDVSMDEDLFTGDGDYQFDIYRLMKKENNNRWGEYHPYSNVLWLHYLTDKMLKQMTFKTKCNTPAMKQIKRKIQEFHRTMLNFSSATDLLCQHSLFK
UniProt P49841: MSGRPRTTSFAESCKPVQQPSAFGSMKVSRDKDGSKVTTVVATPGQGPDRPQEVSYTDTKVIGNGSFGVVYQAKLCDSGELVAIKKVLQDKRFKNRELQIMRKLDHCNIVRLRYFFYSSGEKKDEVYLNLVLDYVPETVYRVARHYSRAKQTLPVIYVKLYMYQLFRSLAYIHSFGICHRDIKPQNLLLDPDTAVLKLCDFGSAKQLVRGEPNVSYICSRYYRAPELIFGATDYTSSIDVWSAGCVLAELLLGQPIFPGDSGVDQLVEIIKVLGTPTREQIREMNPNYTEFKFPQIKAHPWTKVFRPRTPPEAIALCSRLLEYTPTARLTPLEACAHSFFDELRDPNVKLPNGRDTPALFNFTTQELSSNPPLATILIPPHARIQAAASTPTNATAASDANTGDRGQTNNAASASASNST
UniProt O95819: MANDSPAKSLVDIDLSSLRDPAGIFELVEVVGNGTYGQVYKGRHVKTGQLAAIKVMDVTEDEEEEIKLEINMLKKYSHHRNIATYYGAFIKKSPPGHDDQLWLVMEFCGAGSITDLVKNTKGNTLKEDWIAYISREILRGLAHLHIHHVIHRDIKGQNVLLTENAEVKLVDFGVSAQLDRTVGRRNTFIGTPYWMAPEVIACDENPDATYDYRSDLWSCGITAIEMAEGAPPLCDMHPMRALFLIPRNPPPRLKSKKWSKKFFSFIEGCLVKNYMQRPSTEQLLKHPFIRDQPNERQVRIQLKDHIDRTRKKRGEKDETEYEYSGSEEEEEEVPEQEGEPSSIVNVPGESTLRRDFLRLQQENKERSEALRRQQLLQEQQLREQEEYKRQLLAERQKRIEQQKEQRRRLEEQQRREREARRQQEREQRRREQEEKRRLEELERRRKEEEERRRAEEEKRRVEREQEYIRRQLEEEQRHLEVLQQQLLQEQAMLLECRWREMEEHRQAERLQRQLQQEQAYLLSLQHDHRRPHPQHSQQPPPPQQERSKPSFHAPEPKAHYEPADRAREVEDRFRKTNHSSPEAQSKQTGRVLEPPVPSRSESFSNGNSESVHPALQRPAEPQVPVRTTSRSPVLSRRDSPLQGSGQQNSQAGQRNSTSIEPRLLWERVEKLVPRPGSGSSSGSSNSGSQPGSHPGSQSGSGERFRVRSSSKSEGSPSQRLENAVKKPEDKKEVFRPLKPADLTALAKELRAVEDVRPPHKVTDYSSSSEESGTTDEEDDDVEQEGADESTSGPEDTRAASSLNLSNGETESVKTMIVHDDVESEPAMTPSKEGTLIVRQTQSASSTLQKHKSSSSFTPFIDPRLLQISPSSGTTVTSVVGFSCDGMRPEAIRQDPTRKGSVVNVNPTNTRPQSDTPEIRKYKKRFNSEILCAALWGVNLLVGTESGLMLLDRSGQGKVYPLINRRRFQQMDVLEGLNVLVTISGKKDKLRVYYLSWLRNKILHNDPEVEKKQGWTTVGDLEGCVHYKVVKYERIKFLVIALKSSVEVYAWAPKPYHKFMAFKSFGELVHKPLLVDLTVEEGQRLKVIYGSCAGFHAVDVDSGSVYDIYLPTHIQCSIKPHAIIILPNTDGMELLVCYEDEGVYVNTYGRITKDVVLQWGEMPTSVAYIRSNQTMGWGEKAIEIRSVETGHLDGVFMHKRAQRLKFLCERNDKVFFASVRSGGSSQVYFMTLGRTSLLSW
UniProt Q15759, whole entry, looked up: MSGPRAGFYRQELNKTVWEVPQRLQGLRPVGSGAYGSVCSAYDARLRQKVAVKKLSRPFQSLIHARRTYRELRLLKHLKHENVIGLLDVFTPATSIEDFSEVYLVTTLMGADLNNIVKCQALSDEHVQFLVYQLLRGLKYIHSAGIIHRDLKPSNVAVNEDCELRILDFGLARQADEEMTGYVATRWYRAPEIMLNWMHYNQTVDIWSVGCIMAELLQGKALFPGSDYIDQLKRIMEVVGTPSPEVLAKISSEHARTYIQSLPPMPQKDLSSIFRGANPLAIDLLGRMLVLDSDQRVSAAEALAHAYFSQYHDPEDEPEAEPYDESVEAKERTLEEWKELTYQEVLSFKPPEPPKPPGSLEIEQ
UniProt O95747, whole entry, looked up: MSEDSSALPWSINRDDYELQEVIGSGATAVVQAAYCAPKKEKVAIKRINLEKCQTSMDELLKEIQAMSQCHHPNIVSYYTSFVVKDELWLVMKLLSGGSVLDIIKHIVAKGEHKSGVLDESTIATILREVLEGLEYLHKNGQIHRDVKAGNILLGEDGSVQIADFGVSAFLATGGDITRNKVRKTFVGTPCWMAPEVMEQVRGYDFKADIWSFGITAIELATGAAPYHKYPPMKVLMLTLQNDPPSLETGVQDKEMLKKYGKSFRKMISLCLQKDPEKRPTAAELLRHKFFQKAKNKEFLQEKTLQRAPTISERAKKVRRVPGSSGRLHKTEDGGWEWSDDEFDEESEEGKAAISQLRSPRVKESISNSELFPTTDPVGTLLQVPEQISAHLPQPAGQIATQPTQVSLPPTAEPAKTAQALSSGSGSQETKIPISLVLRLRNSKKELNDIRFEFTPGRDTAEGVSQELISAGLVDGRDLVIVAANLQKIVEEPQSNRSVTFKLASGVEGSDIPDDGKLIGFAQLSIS

How the values were obtained:
Experiment in all cases: radiometric filter-binding kinase assay, Kinase HotSpot
Settings in all cases: compound 0.5 µM; ATP 10 µM
AKT1 (human) = AKT1 (human) (UniProt P31749)
AKT3 (human) = AKT3 (human) (UniProt Q9Y243)
BRAF (human) = BRAF (human) (UniProt P15056)
CAMK1 (human) = CAMK1 (human) (UniProt Q14012)
CAMK2G (human) = CAMK2G (human) (UniProt Q13555)
CSNK1G3 (human) = CSNK1G3 (human) (UniProt Q9Y6M4)
DAPK3 (human) = DAPK3 (human) (UniProt O43293)
DDR2 (human) = DDR2 (human) (UniProt Q16832)
DSTYK (human) = DSTYK (human) (UniProt Q6XUX3)
EPHA3 (human) = EPHA3 (human) (UniProt P29320)
EPHB2 (human) = EPHB2 (human) (UniProt P29323)
FGFR3 (human) = FGFR3 (human) (UniProt P22607)
FLT1 (human) = FLT1 (human) (UniProt P17948)
GRK4 (human) = GRK4 (human) (UniProt P32298)
GSG2 (human) = GSG2 (human) (UniProt Q8TF76)
GSK3B (human) = GSK3B (human) (UniProt P49841)
HCK (human) = HCK (human) (UniProt P08631)
LRRK2 (human) = LRRK2 (human) (UniProt Q5S007)
MAP3K10 (human) = MAP3K10 (human) (UniProt Q02779)
MAP4K4 (human) = MAP4K4 (human) (UniProt O95819)
MAPK11 (human) = MAPK11 (human) (UniProt Q15759)
MARK1 (human) = MARK1 (human) (UniProt Q9P0L2)
MATK (human) = MATK (human) (UniProt P42679)
MET (human) = MET (human) (UniProt P08581)
MST4 (human) = MST4 (human) (UniProt Q9P289)
NEK6 (human) = NEK6 (human) (UniProt Q9HC98)
NLK (human) = NLK (human) (UniProt Q9UBE8)
NTRK2 (human) = NTRK2 (human) (UniProt Q16620)
OXSR1 (human) = OXSR1 (human) (UniProt O95747)
PAK3 (human) = PAK3 (human) (UniProt O75914)
PAK7 (human) = PAK7 (human) (UniProt Q9P286)
PDGFRA (human) = PDGFRA (human) (UniProt P16234)
PKN1 (human) = PKN1 (human) (UniProt Q16512)
PLK2 (human) = PLK2 (human) (UniProt Q9NYY3)
PRKCG (human) = PRKCG (human) (UniProt P05129)
PTK2 (human) = PTK2 (human) (UniProt Q05397)
RAF1 (human) = RAF1 (human) (UniProt P04049)
SIK2 (human) = SIK2 (human) (UniProt Q9H0K1)
SRPK2 (human) = SRPK2 (human) (UniProt P78362)
TAOK1 (human) = TAOK1 (human) (UniProt Q7L7X3)
TEK (human) = TEK (human) (UniProt Q02763)
ULK2 (human) = ULK2 (human) (UniProt Q8IYT8)

## O=C1c2ccccc2-[n+]2ccc3c([nH]c4ccccc43)c21
AKT1 (human)
  residual activity: 97%
AKT3 (human)
  residual activity: 101%
BRAF (human)
  residual activity: 95.7%
CAMK1 (human)
  residual activity: 84.7%
CAMK2G (human)
  residual activity: 94.2%
CSNK1G3 (human)
  residual activity: 79.7%
DAPK3 (human)
  residual activity: 87.1%
DDR2 (human)
  residual activity: 95.4%
DSTYK (human)
  residual activity: 77.3%
EPHA3 (human)
  residual activity: 110%
EPHB2 (human)
  residual activity: 85.4%
FGFR3 (human)
  residual activity: 78.5%
FLT1 (human)
  residual activity: 86.9%
GRK4 (human)
  residual activity: 92.1%
GSG2 (human)
  residual activity: 90.5%
GSK3B (human)
  residual activity: 112%
HCK (human)
  residual activity: 114%
LRRK2 (human)
  residual activity: 70.1%
MAP3K10 (human)
  residual activity: 102%
MAP4K4 (human)
  residual activity: 91.9%
MAPK11 (human)
  residual activity: 100%
MARK1 (human)
  residual activity: 84.5%
MATK (human)
  residual activity: 89.9%
MET (human)
  residual activity: 87.3%
MST4 (human)
  residual activity: 98.6%
NEK6 (human)
  residual activity: 87.8%
NLK (human)
  residual activity: 94.9%
NTRK2 (human)
  residual activity: 74.4%
OXSR1 (human)
  residual activity: 103%
PAK3 (human)
  residual activity: 98.2%
PAK7 (human)
  residual activity: 96.2%
PDGFRA (human)
  residual activity: 97.4%
PKN1 (human)
  residual activity: 101%
PLK2 (human)
  residual activity: 79.9%
PRKCG (human)
  residual activity: 101%
PTK2 (human)
  residual activity: 103%
RAF1 (human)
  residual activity: 92.9%
SIK2 (human)
  residual activity: 106%
SRPK2 (human)
  residual activity: 82.5%
TAOK1 (human)
  residual activity: 95.5%
TEK (human)
  residual activity: 83.4%
ULK2 (human)
  residual activity: 123%
